These are literature values, as cited in publication PMC6028903, “Solubility Thermodynamics of CyMe 4 -BTBP in Various Diluents Mixed with TBP” (Journal of Solution Chemistry, 2018).

The conditions of series [1]: literature; cited from earlier work.
The conditions of series [2]: 298 K; cited from earlier work.
For series [3] the following is noted: literature; cited from earlier work. The source holds these as a separate data set.
The conditions of series [4]: literature; cited from earlier work. The source holds these as a separate data set.

Marks after values point to notes of the source that are not given here.

In the case of `CCCCOP(=O)(OCCCC)OCCCC`, in series [1], the Surface tension is on record as 27.6^c mN · m ^-1. Further, in series [2], the Solvent in water is given as 0.039^b wt% and the Water in solvent is 4.67^b wt%. Further, the Flash point in series [3] is given as 419 KC^e. Further, the Density in series [4] is listed as 0.97^b g · cm ^-3.
